Values of other authors as cited in patent US20020151467A1, “Methods and compositions for oral insulin delivery” (priority 2000, published 2002).

Details: oral, under the best conditions (Damge, 1997); cited from earlier work

insulin
fraction of orally administered insulin absorbed: Less than 0.5%
